Assay results: patent US20090131331A1 (DSM IP ASSETS B.V., priority 2005, published 2009)

Columns and labels:
[1] = Simulated in-vitro gastro-intestinal digestion of synthetic MAP and ITP (micro-dissolution); format: in vitro ADME; details: for remaining at 65 min, 10 microgram/ml / remaining at 1.5 h, 10 microgram/ml / remaining at 2 h, 10 microgram/ml: simulated intestinal fluid, pH 6.8; for % average remaining: 0 minutes
[2] = gastro-intestinal treatment (GIT procedure) of CDBAP, simulated human gastro-intestinal tract; format: in vitro ADME
Experimental: After consumption, dietary proteins and peptides are exposed to various digestive enzymatic processes in the gastrointestinal tract. […] Samples obtained after various incubation times in the GIT model system were analysed using the on-line HPLC-Bioassay-MS or HRS-MS system to quantify any residual MAP and ITP peptides. The GIT procedure was performed in a standardized mixing device incorporating a 100 ml flask (as supplied by Vankel, US). The temperature of the water bath was set to 37.5° C. and the paddle speed was chosen such that the sample was kept in suspension (100 rpm). […] During gastric simulation 5 M HCl was used to decrease the pH. At the end of gastric simulation and during the duodenal phase 5 M NaOH was used to raise the pH. […] At t=0 min the 5 ml with the now dissolved pepsin was added back to the suspension. […] [table] At t=90 min 0.139 g of 8 times USP pancreatin (Sigma order no. […] The incubation continued according to the following scheme: [table] The experiment was stopped at t=125 min and the pH was checked (was still pH 7). Then the samples were transferred into a beaker and were placed in a microwave till boiling. Subsequently, the samples were transferred into glass tubes and incubated at 95° C. for 60 min to inactivate all protease activity. […] The supernatant was freeze dried. The total N concentration of the powder as obtained was determined and converted to protein level using the Kjeldahl factor of casein (6.38). […] The levels of MAP and ITP surviving the proteolytic treatment according to the GIT procedure were determined as described in Example 7 and the data obtained are shown in Table 10.

ACE [3] = assay: at-line ACE inhibition assay; format: biochemical
Experimental: For the at-line ACE inhibition assay 27 μl of a 33.4 mU ml^−1 ACE (enzyme obtained from Sigma) in phosphate buffered saline (PBS) pH 7.4 with a chloride concentration of 260 mM was added and the mixture was allowed to incubate for 5 minutes on a 96 well plate mixer at 700 RPM. After the incubation period 13 μl of a 0.35 mM hippuric acid-histidine leucine (HHL) solution in PBS buffer was added and mixed for 1 minute at 700 RPM. The mixture was allowed to react for 60 minutes at 50° C. in a GC-oven. After the reaction the plate was cooled in melting ice.
The 96 well plate was then analysed on a flash-HPLC-column. Of the reaction mixture of each well 30 μl was injected on a Chromlith Flash RP18e 25×4.6 mm HPLC column (Merck, Darmstadt, Germany) equipped with a 10×4.6 mm RP18e guard column from the same supplier. The isocratic mobile phase consisted of a 0.1% solution of TFA in water/acetonitrile 79/21. […] Hippuric acid (H) and HHL were monitored at 280 nm. The peak heights of H and HHL were measured and the ACE inhibition (ACEI) of each fraction was calculated according to the equation: […]
• DCw Degree of Cleavage by ACE of HHL to H and HL in water • DCa Degree of Cleavage of HHL to H and HL for the analyte The Degree of Cleavage was calculated by expressing the peak height of H as a fraction of the sum of the peak heights of H and HHL.

ACE [4] = assay: modified Matsui ACE inhibition assay; format: biochemical; details: as stated in description text; read-out: IC50 value in the Modified Matsui test
Experimental: To determine the ACE inhibition activity of MAP and ITP, the chemically synthesised tripeptides were assayed according to the method of Matsui et al. (Matsui, T. et al. (1992) Biosci. Biotech. Biochem. 56: 517-518) with some minor modifications.
Each one of the four samples contained 75 μl 3 mM hippuryl histidine leucine (Hip-His-Leu, Sigma) dissolved in a 250 mM borate solution containing 200 mM NaCl, pH 8.3. ACE was obtained from Sigma. The mixtures were incubated at 37° C. and stopped after 30 min by adding 125 μl 0.5 M HCl. […] After incubation for 20 min. at 37° C., 4 ml 4 mM Na2SO3 in 0.2 M NaH2PO4 was added and the light absorbance at 416 nm was measured with UV/Vis spectrophotometer (Shimadzu UV-1601 with a CPS controller, Netherlands).
The amount of ACE inhibition (ACEI) activity was calculated as a percentage of inhibition compared with the conversion rate of ACE in the absence of an inhibitor according to the following formula: […]
Control 1=Absorbance without ACE inhibitory component (=max. ACE activity) [AU]. Control 2=Absorbance without ACE inhibitory component and without ACE (background) [AU]. Sample1=Absorbance in the presence of ACE and the ACE inhibitory component [AU]. Sample 2=Absorbance in the presence of the ACE inhibitory component, but without ACE [AU]. […]

[5] = simulated gastric fluid, pH 3.5

Row | resistance against GIT digestion [2] | IC50 (ACE [4]) [µM] | SMILES | stability under gastro-intestinal conditions [1] | remaining at 0.5 h, 10 microgram/ml [1, 5] [%] | remaining at 65 min, 10 microgram/ml [1] [%] | remaining at 1.5 h, 10 microgram/ml [1] [%] | remaining at 2 h, 10 microgram/ml [1] [%] | Concentration in powder before GIT procedure [2] [μg g^−1 powder] | IC50 (ACE [3]) [µM] | % average remaining ([1]; 1 microgram/ml) [%] | % average remaining ([1]; 10 microgram/ml) [%] | remaining at 1 h, 10 microgram/ml [1, 5] [%] | stability under gastro-intestinal conditions ([1]; synthetic peptide) | resistance against GIT digestion ([2]; in CDBAP)
1 | high resistance against GIT digestion | 0.5 | CSCC[C@H](N)C(=O)N[C@@H](C)C(=O)N1CCC[C@H]1C(=O)O [MAP, Methionine-Alanine-Proline] | reasonably good stability under gastro-intestinal conditions | 77 | 37 | 11 | 3 | 2851.4 | 3.8 | – | – | – | – | –
2 | – | – | CC[C@H](C)[C@H](N)C(=O)N[C@H](C(=O)N1CCC[C@H]1C(=O)O)[C@@H](C)O [ITP, Isoleucine-Threonine-Proline] | – | 81 | 75 | 62 | 46 | 903.7 | 50 | 100 | 100 | 91 | excellent stability under gastro-intestinal conditions | high resistance against GIT digestion

Like-named read-outs stand apart in the source and are kept apart here.
